Results from PMC7723054.
The list shows a part of the results.

B1: hsa-mir-548w (structured_RNA)
RNA: GGGAAGGGAUAAGUAUCUCGCCAUUCCGGGUGUACGAAGUUUCAGCGCCUUUCAACAUAAUGGCGCUGAAGCUUCGUGCAC
B2: hsa-mir-4448 (structured_RNA)
RNA: GGGACUCCCACACUGAGUCGUCGUGAUUGGUGUACGAAGUUUCAGCAGCCUUCUAUUAUGCCCAGACAGGGCCACCAGAGGGCUGCUGAAGCUUCGUGCAC
B3: hsa-mir-654 (structured_RNA)
RNA: GGGAAGAACGUCAUGUUGUCGAGACUCCGGUGUACGAAGUUUCAGCCAUGUGCUGAGUUCGUGCCAUAUGGCUGAAGCUUCGUGCAC
B4: hsa-mir-6828 (structured_RNA)
RNA: GGGAACUCGGUAGGCUCGUGAAUCCAUCGGUGUACGAAGUUUCAGCCUGUGGUCUAACCUUUCCCAUCUGCUGAAGCUUCGUGCAC
B5: hsa-mir-1302-4 (structured_RNA)
RNA: GGGCAGGCCGAGCUUUAUUAGGAUAACAGGUGUACGAAGUUUCAGCCCAUGCAACAUUUGGGCUGAAGCUUCGUGCAC
B6: hsa-mir-939 (structured_RNA)
RNA: GGGACAUAGGGAUCGCAUUCCGAUUAAUGGUGUACGAAGUUUCAGCGGGGGUGGCCGGGGCUGACCCUGCUGAAGCUUCGUGCAC
B7: hsa-mir-5095 (structured_RNA)
RNA: GGGACAUAGGUUUAGACUGUAGUGGCAGGGUGUACGAAGUUUCAGCCGCGCCCGGCCUAACUUUUAAGAAACGUCGGCCCGGGAGCGGCUGAAGCUUCGUGCAC
B8: hsa-mir-3143 (structured_RNA)
RNA: GGGAAUCGUCUAGGGCCAAUACGUCAAUGGUGUACGAAGUUUCAGCUUCGCGGUUGGGCUGCUGAAGCUUCGUGCAC
B9: hsa-mir-548l (structured_RNA)
RNA: GGGAAUAGAAGCGUUUAGACGAACUGCUGGUGUACGAAGUUUCAGCUGUCGUAGAAAGUAAUGGCAGCUGAAGCUUCGUGCAC
B10: hsa-mir-3155a (structured_RNA)
RNA: GGGAAGGGACCCUCAAUGCCUACGAAGAGGUGUACGAAGUUUCAGCCUGGGGAGCCGGACAGCUCCCUUCCCAGGCUGAAGCUUCGUGCAC
B11: hsa-mir-4651 (structured_RNA)
RNA: GGGAAAAGCACAGUGGGUUGCUAAUCUUGGUGUACGAAGUUUCAGCGGGCCCCAAGACUCGGGGUUUGCUGAAGCUUCGUGCAC
B12: hsa-mir-3662 (structured_RNA)
RNA: GGGACGCCUUCCACUCACAACUGUGCUAGGUGUACGAAGUUUCAGCUCUCAAUCCAUUCAUAUUGAAAGCUGAAGCUUCGUGCAC
B13: hsa-mir-548ak (structured_RNA)
RNA: GGGAACAACACUGGCGCCGGAAAACUCUGGUGUACGAAGUUUCAGCUUGAGAAGUAAUUGAGCUGAAGCUUCGUGCAC
B14: hsa-mir-219b (structured_RNA)
RNA: GGGAAAGGGUGCCGAACCUAGACAUAAGGGUGUACGAAGUUUCAGCUUCUCGGUUGGCCGCAGACUCGUACAAGAAGCUGAAGCUUCGUGCAC
B15: hsa-mir-1250 (structured_RNA)
RNA: GGGAAGGACACAUAGUAAGUCCGCCAUCGGUGUACGAAGUUUCAGCUGUGGCCUUUUUGCCUUUUCUAAAGGCCACAUGCUGAAGCUUCGUGCAC
B16: hsa-mir-1305 (structured_RNA)
RNA: GGGAACGGUAUCUGCAUAUUCUCACGAGGGUGUACGAAGUUUCAGCAUGUUUAUUGUAAAGAUACUUUGCUGAAGCUUCGUGCAC
B17: hsa-mir-26b (structured_RNA)
RNA: GGGAGAGUCAGCUCCCGUCAUCUUGUCGGGUGUACGAAGUUUCAGCUAGGUUGUGUGCUGUCCAGCCUGGCUGAAGCUUCGUGCAC
B18: hsa-mir-574 (structured_RNA)
RNA: GGGAGAGACGUAACACUUGCCGCGUGAGGGUGUACGAAGUUUCAGCUGUGUGUCGCUCCGGGUCCACGGCUGAAGCUUCGUGCAC
B19: hsa-mir-4438 (structured_RNA)
RNA: GGGAAAUCGAACGGUGAAGCUACAUAGUGGUGUACGAAGUUUCAGCUGUGCCUUGCCUUUCCUUUGGCACAGCUGAAGCUUCGUGCAC
B20: hsa-mir-3911 (structured_RNA)
RNA: GGGAUCUUAUGUCCCACUAGCGGCAACCGGUGUACGAAGUUUCAGCGCAGAGAAGACAGUGAGCUUGCCAGUUCUGGUUUCCAACACUUCCUUUCCUGCGGCUGAAGCUUCGUGCAC
B21: hsa-mir-6767 (structured_RNA)
RNA: GGGACCCAAACACGGCAAAUCUUCACUCGGUGUACGAAGUUUCAGCAUGGAGAACGCCCCCACCAGUUCCCACGCUGAAGCUUCGUGCAC
B22: hsa-mir-147b (structured_RNA)
RNA: GGGAAAGUCCGGCCAAAGCAUCGGUAAGGGUGUACGAAGUUUCAGCAUUCUGGACACCAGGCUGAAGCUUCGUGCAC
B23: hsa-mir-3926-2 (structured_RNA)
RNA: GGGACAAUUAACGCGGCUUGGCUACAUUGGUGUACGAAGUUUCAGCGAGACGCUUUUAAAGUCUCGCUGAAGCUUCGUGCAC
B24: hsa-mir-487a (structured_RNA)
RNA: GGGAUGAUCCUGUACUGCUAUUUGCGGUGGUGUACGAAGUUUCAGCGUUCGCUUAAUUUAUGACGAAUCGCUGAAGCUUCGUGCAC
B25: hsa-mir-933 (structured_RNA)
RNA: GGGAAGACGUCGGCCCAUUCGUCUUCAGGGUGUACGAAGUUUCAGCCGCGCGUCGAGUCAGCCGUGUGGCUGAAGCUUCGUGCAC
B26: hsa-mir-3938 (structured_RNA)
RNA: GGGAAACCGCAGAAACCGAUAAAGUGGCGGUGUACGAAGUUUCAGCAAUUUUUUUUUAAUUUAAAAAAUUGCUGAAGCUUCGUGCAC

These binders were tested against T1, LIN28A (human?, UniProt Q9H9Z2 1-209) (assay: FOREST: bead pull-down of RNA structure library v1, barcode microarray; U1A/LIN28A: 20 mM HEPES pH 7.5, 80 mM KCl, 20 mM NaCl, 10% glycerol, 2 mM DTT, 0.1 ug/uL BSA, 4 C; BG4/CIRBP/DHX36: 10 mM Tris-HCl pH 7.5, 100 mM KCl (or LiCl),; high values mean tight binding).
T1 sequence: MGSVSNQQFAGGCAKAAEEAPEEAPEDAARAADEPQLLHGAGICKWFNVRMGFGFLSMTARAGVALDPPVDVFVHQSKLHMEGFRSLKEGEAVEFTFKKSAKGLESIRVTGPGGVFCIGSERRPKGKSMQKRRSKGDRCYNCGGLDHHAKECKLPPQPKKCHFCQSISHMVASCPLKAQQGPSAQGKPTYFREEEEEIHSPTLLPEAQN
With B1 the binding signal was -0.219 z-score.
B2 showed a binding signal of -0.219 z-score.
B3 showed a binding signal of -0.219 z-score.
Work on B4 yielded a binding signal of -0.228 z-score.
In the case of B5, the binding signal is reported as -0.229 z-score.
B6 was tested, and the binding signal was -0.231 z-score.
In the case of B7, the binding signal is reported as -0.232 z-score.
Binder B8 has a binding signal of -0.233 z-score.
B9 showed a binding signal of -0.238 z-score.
B10 gave a binding signal of -0.244 z-score.
With B11 the binding signal was -0.249 z-score.
B12 gave a binding signal of -0.25 z-score.
With B13 the binding signal was -0.25 z-score.
Work on B14 yielded a binding signal of -0.252 z-score.
B15 showed a binding signal of -0.252 z-score.
With B16 the binding signal was -0.254 z-score.
Binder B17 has a binding signal of -0.26 z-score.
In the case of B18, the binding signal is reported as -0.262 z-score.
In the case of B19, the binding signal is reported as -0.268 z-score.
Work on B20 yielded a binding signal of -0.269 z-score.
Binder B21 has a binding signal of -0.269 z-score.
With B22 the binding signal was -0.271 z-score.
B23 showed a binding signal of -0.273 z-score.
B24 showed a binding signal of -0.274 z-score.
In the case of B25, the binding signal is reported as -0.274 z-score.
In the case of B26, the binding signal is reported as -0.275 z-score.

The binders below were run against T2, CIRBP (Homo sapiens, UniProt Q14011 1-172) in the same assay as above.
T2 sequence: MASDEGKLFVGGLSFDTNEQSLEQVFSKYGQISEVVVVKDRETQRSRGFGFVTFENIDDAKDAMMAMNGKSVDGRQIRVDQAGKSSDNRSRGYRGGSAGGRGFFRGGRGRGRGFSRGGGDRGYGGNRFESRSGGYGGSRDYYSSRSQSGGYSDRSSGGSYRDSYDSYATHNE
With B1 the binding signal was -1.17 z-score.
For B2, the binding signal was 0.0457 z-score.
B3 was tested, and the binding signal was -1.1 z-score.
Work on B4 yielded a binding signal of 0.238 z-score.
In the case of B5, the binding signal is reported as -0.187 z-score.
B6 gave a binding signal of -0.85 z-score.
With B7 the binding signal was 0.366 z-score.
Work on B8 yielded a binding signal of -0.224 z-score.
B9 was tested, and the binding signal was -0.729 z-score.
With B10 the binding signal was -0.12 z-score.
Binder B11 has a binding signal of 0.732 z-score.
B12 showed a binding signal of -0.231 z-score.
B13 showed a binding signal of -0.245 z-score.
With B14 the binding signal was 0.628 z-score.
B15 showed a binding signal of 0.186 z-score.
In the case of B16, the binding signal is reported as 0.187 z-score.
B17 was tested, and the binding signal was -1.15 z-score.
For B18, the binding signal was -0.523 z-score.
In the case of B19, the binding signal is reported as 0.0269 z-score.
In the case of B20, the binding signal is reported as -1.11 z-score.
With B21 the binding signal was -0.711 z-score.
B22 was tested, and the binding signal was 0.734 z-score.
B23 showed a binding signal of 1.01 z-score.
Binder B24 has a binding signal of -0.862 z-score.
For B25, the binding signal was -0.605 z-score.
Work on B26 yielded a binding signal of -0.572 z-score.

What follows are binders tested against T3, DHX36 (Homo sapiens, UniProt Q9H2U1 1-1008) in the same assay as above.
T3 sequence: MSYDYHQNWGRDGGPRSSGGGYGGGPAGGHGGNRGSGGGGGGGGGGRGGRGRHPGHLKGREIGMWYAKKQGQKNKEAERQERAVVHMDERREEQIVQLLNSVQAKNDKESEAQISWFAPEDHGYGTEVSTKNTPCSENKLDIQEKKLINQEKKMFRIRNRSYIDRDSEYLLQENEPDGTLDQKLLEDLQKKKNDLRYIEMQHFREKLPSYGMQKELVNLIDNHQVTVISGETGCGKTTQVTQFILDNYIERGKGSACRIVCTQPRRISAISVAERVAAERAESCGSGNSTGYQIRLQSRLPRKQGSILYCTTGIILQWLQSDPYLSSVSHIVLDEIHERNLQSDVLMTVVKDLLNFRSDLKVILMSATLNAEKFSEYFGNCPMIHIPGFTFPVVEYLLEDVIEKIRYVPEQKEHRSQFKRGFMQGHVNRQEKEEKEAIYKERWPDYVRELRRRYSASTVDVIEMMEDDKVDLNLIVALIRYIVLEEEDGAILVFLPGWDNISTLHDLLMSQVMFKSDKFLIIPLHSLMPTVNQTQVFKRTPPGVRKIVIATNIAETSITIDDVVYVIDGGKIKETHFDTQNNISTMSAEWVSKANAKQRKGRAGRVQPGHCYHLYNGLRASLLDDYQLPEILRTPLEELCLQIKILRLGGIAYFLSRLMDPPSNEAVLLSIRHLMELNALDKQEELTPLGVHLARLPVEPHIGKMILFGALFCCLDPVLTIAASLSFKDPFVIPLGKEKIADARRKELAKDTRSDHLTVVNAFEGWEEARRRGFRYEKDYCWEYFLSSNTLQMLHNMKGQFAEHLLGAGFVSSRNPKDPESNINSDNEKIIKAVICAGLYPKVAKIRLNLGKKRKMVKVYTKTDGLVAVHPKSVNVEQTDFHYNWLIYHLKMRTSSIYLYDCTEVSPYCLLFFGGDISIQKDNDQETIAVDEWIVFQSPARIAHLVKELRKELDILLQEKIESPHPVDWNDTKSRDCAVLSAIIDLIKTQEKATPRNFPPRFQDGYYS
With B1 the binding signal was -0.901 z-score.
B2 gave a binding signal of -0.47 z-score.
B3 showed a binding signal of 0.722 z-score.
With B4 the binding signal was -1.04 z-score.
Binder B5 has a binding signal of -0.188 z-score.
B6 was tested, and the binding signal was 2.27 z-score.
B7 showed a binding signal of 0.533 z-score.
Binder B8 has a binding signal of -0.0784 z-score.
B9 showed a binding signal of -0.37 z-score.
B10 showed a binding signal of 0.137 z-score.
Work on B11 yielded a binding signal of 0.48 z-score.
B12 showed a binding signal of -0.0393 z-score.
Work on B13 yielded a binding signal of 0.00866 z-score.
B14 was tested, and the binding signal was -0.0693 z-score.
For B15, the binding signal was -0.162 z-score.
B16 was tested, and the binding signal was -0.198 z-score.
With B17 the binding signal was 1.09 z-score.
Binder B18 has a binding signal of 0.826 z-score.
In the case of B19, the binding signal is reported as -0.253 z-score.
For B20, the binding signal was -0.734 z-score.
Binder B21 has a binding signal of -0.681 z-score.
Work on B22 yielded a binding signal of -0.652 z-score.
In the case of B23, the binding signal is reported as -0.0895 z-score.
Work on B24 yielded a binding signal of -1.17 z-score.
B25 gave a binding signal of 0.0895 z-score.
For B26, the binding signal was -0.175 z-score.
